HALR1/hALR2 data for two compounds are collected here from patent publication US20120065203A1, “Methods of Reducing Serum Glucose and Triglyceride Levels and for Inhibiting Angiogenesis Using Substituted Indolealkanoic Acids” (The Institute for Pharmaceutical Discovery, LLC, priority 1998, published 2012).

This test concerns the target human aldose reductase (hALR2) (Homo sapiens, UniProt P15121). The test can be described thus: Inhibition of human aldose reductase (hALR2). The class given is biochemical. The conditions noted are these: ratio of hALR1 IC50 to hALR2 IC50 (selectivity). The procedure: Representative compounds of the invention were tested for their potency, selectivity and efficacy as inhibitors of human aldose reductase.

As to `O=C(O)Cn1cc(Cc2nc3c(F)c(F)cc(F)c3s2)c2c(Cl)cccc21` [Example 29, 4-Chloro-3-(4,5,7-trifluorobenzothiazol-2-yl)methyl-indole-N-acetic acid], the HALR1/hALR2 was 1,270. Take `COc1ccc2c(c1)c(Cc1nc3c(F)c(F)cc(F)c3s1)cn2CC(=O)O` [Example 30, 5-Methoxy-3-(4,5,7-trifluorobenzothiazol-2-yl)methyl-indole-N-acetic acid]: the HALR1/hALR2 was 2,700.
